Sequences of proteins named here, by UniProt entry; tags and fusion partners are left off. Residues count along the entry.
UniProt P01889, 25-362: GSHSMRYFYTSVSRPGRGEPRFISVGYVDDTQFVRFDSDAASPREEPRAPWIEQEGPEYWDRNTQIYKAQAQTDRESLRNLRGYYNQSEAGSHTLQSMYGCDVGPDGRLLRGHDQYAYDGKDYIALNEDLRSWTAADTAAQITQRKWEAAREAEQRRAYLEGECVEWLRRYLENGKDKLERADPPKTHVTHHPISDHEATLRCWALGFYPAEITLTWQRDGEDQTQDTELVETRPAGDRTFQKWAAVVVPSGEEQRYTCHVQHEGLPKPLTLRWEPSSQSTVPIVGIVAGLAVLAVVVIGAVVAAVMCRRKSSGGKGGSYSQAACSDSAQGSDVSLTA

In US20050048073A1, “Methods of determining west nile virus epitopes and method of using the same” (priority 2001, published 2005):

Target: HLA B*07 (Homo sapiens, UniProt P01889)
Test: T2B7 binding assay (stabilization of HLA B*07 on TAP-deficient T2 cells, FACS)
Description: Triplicate wells of peptide at 10, 20, 200 ug/ml were evaluated in each of the T2 B7 binding assays; each assay was repeated 4 times. […] The “binding score” column provides the numerical sum of all the positive assays in the binding summary column.
The T2B7 binding assay method is well described in the literature and operational in the laboratory. This assay relies on the ability of exogenously added peptides to stabilize the class I MHC/beta 2 microglobulin structure on the surface of transporters associated with antigen processing (TAP)-deficient cell lines. Briefly, HLA B*07 T2 cell lines were prepared by incubating overnight (16 hours) at 26° C. Just prior to the binding assay these cells were washed twice in serum-free media. Solutions of the test peptides at three concentrations (final concentration of 10, 20, and 200 ug/ml in RPMI 1640 (Sigma, St. Louis, Mo.)) were plated in triplicate wells of a 96 well, round-bottom assay plate (Beckton Dickinson, Lincoln Park, N.J.). Sixteen wells containing cells without peptide were included in each plate, serving as the no-peptide control (background control) for the assay.
100,000 cells were added to each well, and the plates were then incubated for four hours at 37° C., 5% CO2 The plates were then spun at 110×g for 10 minutes at 4° C., supernatant is discarded and the remaining cells are re-suspended. One hundred uL of diluted primary antibody-containing hybridoma supernatant (1:10 dilution of ME1 supernatant produced by HB-119 cell line from ATCC) in staining buffer (PBS, 5% FBS, 0.1% sodium azide) was added to all of the wells except 8 wells per assay plate (each containing 200 ug/ml of one study peptide, these wells served as controls for non-specific binding of secondary antibody). Primary antibody was incubated with the peptide-pulsed cells for 30 minutes at 4° C. After washing three times, the cells were re-suspended, and 100 uL of a 1:250 dilution of FITC-labeled secondary antibody (FITC labeled Goat F(ab′)2 Anti-mouse IgG (H+L) from Caltag) in staining buffer were added to all wells. The plates were incubated for 30 minutes at 4° C., and subsequently washed three times. The contents of each well were then resuspended in 200 uL of fixing buffer (PBS, 1% paraformaldehyde), and aliquoted into FACS tubes.
The 16 negative control wells in each plate contained no peptide but did contain cells, primary antibody and secondary antibody. […]
Following fixing, the presence of fluorescent secondary antibody on the surface of T2 cells (gated to the appropriate cell size) was measured at 488 nm on a FACScan flow cytometer (Becton-Dickinson, New Jersey). The mean linear fluorescence […] of 10,000 events was measured and compared to the background fluorescence of cells plated in (no peptide) control wells. […]

Sequence: AAKKKGASLL [WNB7 006]
- Avg. Fold Inc. @ 200 (fold increase over background, peptide at 200 ug/ml): 1.2
- Avg. MFI 200 (mean fluorescence index, peptide at 200 ug/ml): 708.1
- Binding number (binding score) (numerical sum of all the positive assays): 4
- Binding strength (rated strong, moderate, weak or none by number of significantly positive wells): weak (weak binders (binding score of 4))
